# Source: patent US11426367B2, “Methods of treating substance abuse” (Perception Neuroscience, Inc., priority 2018, dated 2022)
# Key:
# [1] = tested on: social defeat stress mice; assay: Golgi staining, spine density in brain regions, social defeat stress model; assay type: in vivo; conditions: 10 mg/kg i.p., 8 days after injection; for spine density of the nucleus accumbens: density increased by stress
# Method: A social defeat stress model of depression was prepared by bringing C57/B6 male mice into contact with ICR male mice (large aggressive mice) for 10 consecutive days to apply a stress called a “social defeat stress” in accordance with the previous report (Non Patent Literature 19). […] Specifically, an increase in immobility time was found in each of a tail suspension test (TST) and a forced swimming test (FST).
# The preparation of the animal model of depression and the administration of the agent were specifically performed as described below (FIG. 3A). Male C57/B6 mice (7-week-old, Japan SLC, Inc., Hamamatsu, Japan) and ICR mice (9-week-old, Japan SLC, Inc., Hamamatsu, Japan) were used. The mice were given free access to water and feed. A social defeat stress was applied by housing one C57/B6 mouse with one ICR mouse for 10 days.
# The antidepressant effects of the agent were investigated by behavioral tests such as the TST, the PST, the LMT, and a 1% sucrose preference test (SPT) (FIG. 3A). The 1% sucrose preference test (SPT) was performed on 1 day and 6 days after the injection of ketamine. Each of the TST and the PST was performed on 2 days and 7 days after the injection of ketamine. The TST was performed as described below. First, the mice were taken out from cages, and then a small piece of an adhesive tape was bonded onto a portion approximately 2 cm away from the tip of the tail of the mice. A small hole was opened in the small piece, and the mice were each fixed upside down on a hook through the small hole. The immobility time of each mouse was recorded for 10 minutes. Mice were considered immobile only when they hung passively and completely motionless. The immobility time increases in a depressive state. The PST was performed as described below. First, the mice were placed individually in a cylinder (diameter: 23 cm; height: 31 cm) containing 15 cm of water, maintained at 22 to 24 deg C. The mice were tested in an automated forced-swimming apparatus using SCANET MV-40 (MELQUEST Co., Ltd., Toyama, Japan). The immobility time was calculated as a value obtained by subtracting active time from total time, using the analysis software of the apparatus. Cumulative immobility time was recorded over 6 minutes during a test period. The LMT was performed as described below. First, the mice were placed in experimental cages (length×width×height: 560×560×330 mm). The locomotor activity of the mice was counted with SCANET MV-40, and the cumulative exercise of the mice was recorded for 60 minutes. The cages were cleaned between testing session. The immobility time increases in a depressive state. The SPT was performed by preparing general drinking water and a 1% sucrose solution so that the mice had free access thereto, and measuring the ratio of the amount of the sucrose solution consumed. The consumption of the sucrose solution, which is a reward response, reduces in a depressive state. The mice were decapitated 5 days after the injection of ketamine, and the brain was quickly dissected out and subjected to Golgi staining. A spine density was quantitatively evaluated by observation with a KEYENCE microscope (BZ-9000, Osaka, Japan).
# [2] = tested on: NMDA receptor; conditions: cited from earlier work
Compound,spine density of the frontal cortex [1],spine density of the hippocampal dentate gyrus [1],spine density of the hippocampus CA1 region [1],spine density of the hippocampus CA3 region [1],spine density of the striatum [1],spine density of the nucleus accumbens [1],"potency at the receptor (NMDA), fold less potent than S(+)-ketamine [2]","affinity for the NMDA receptor, fold greater than R-isomer ([2]; Non Patent Literature 12)"
CN[C@@]1(c2ccccc2Cl)CCCCC1=O.Cl [R(−)-ketamine],significantly improved the decreased density of spine,significantly improved the decreased density of spine,no apparent change in spine density,significantly improved,no apparent change in spine density,significantly improved,2-4 fold,
CN[C@]1(c2ccccc2Cl)CCCCC1=O [S(+)-ketamine],significantly improved the decreased density of spine,significantly improved the decreased density of spine,no apparent change in spine density,significantly improved,no apparent change in spine density,significantly improved,,approximately 4 fold
